Measured values: patent US20260193328A1 (NECTAGEN, published 2026)

How the values were obtained:
[1] = biological target: T1, B-SUMO (P1068) (yeast); assay: BLI, B-SUMO on streptavidin tips, 1:1 global fit
T1 chain: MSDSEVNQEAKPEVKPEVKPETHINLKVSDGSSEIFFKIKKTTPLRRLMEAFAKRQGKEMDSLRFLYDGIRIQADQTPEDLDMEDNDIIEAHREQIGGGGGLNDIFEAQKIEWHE

[2] = biological target: SUMO-GFP fusion (P10126RDG-1); assay: affinity chromatography from spiked E. coli lysate
[3] = biological target: T1, B-SUMO (P1068); assay: library selection; target listed for clone

Binder | Kd [1] | binding result [2] | binding result [3]
SMT3-A1 (designed binder) NPSLIRSESWEDIKGNEANLLDGDDNTGVWYFNEVFYESLAGEFIGLDLGKEIKLDGIRFVIGKNGGGSSDKWNKFKLEYSLDNESWTTIKEYDKTGAPAGKDVIEESFETPISAKYIRLTNLEDKILFLTFSEFAIVSD | 163 nM | binds | 
plate 37-624F (designed binder) HHHHHHYPSLIRSESWARPVGNEANLLDGDDNTGVWYHKKKSKISLAGEFIGLDLGKEIKLDGIRFVIGKNGGGSSDKWNKFKLEYSLDNESWTTIKEYDKTGAPAGKDVIEESFETPISAKYIRLTNLEVNSPLTFSEFAIVSD |  |  | binds
SUMO-16-624F (designed binder) GSSHHHHHHNPSLIRSESWAYDTGNEANLLDGDDNTGVWYIYDSDEKSLAGEFIGLDLGKEIKLDGIRFVIGKNGGGSSDKWNKFKLEYSLDNESWTTIKEYDKTGAPAGKDVIEESFETPISAKYIRLTNLEYYHYLTFSEFAIVSD |  |  | binds
P2808 (designed binder) GSSHHHHHHDPTLIHTPGWLVIPGSEADLLDGDDSTGVEYIIVEEFTSLAGEFIGLDLGEVVEVGGIHFVIGADGGGSSDKWTRFRLEYSLDGESWTTIREYDHTGAPAGQDVIDEDFETPISAQYIRLTNLEYNFIDLTFSEFAIVSDELEDYKDDDDKG | 7 nM |  | 
